Source: patent publication EP1202975B1, “SUBSTITUTED POLYCYCLIC ARYL AND HETEROARYL PYRAZINONES USEFUL FOR SELECTIVE INHIBITION OF THE COAGULATION CASCADE” (Pharmacia Corporation, priority 1999, dated 2000)

Protein sequences, listed by entry. Tags and fused reporters are not part of them. Residues count along the entry.
UniProt P00761, 9-231: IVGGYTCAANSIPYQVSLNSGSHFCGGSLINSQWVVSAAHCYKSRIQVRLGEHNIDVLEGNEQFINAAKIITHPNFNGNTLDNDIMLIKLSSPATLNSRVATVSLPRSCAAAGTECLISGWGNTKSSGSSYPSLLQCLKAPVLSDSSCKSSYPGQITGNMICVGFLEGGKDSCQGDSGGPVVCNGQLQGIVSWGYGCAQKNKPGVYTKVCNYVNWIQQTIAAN

Biological target: Trypsin (type IX from porcine pancreas) (Sus scrofa, UniProt P00761)
Conditions: for IC50: read-out: IC50 or % Inhibition Trpysin II (30 µM)
[1] = cells given as a plain number (IC50)

## N=C(N)c1ccc(CNC(=O)Cn2c(-c3ccccc3)c(Cl)nc(NCCc3ccncc3)c2=O)cc1 [1471-13]
[1]
  IC50: 530 nM

## N=C(N)c1ccc(CNC(=O)Cn2c(-c3cccc(Cl)c3)c(Cl)nc(NCc3ccccc3)c2=O)cc1 [1471-25]
[1]
  IC50: 360 nM

## CCc1c(Cl)nc(NCCc2cccc(Cl)c2)c(=O)n1CC(=O)NCc1ccc(C(=N)N)cc1 [1471-62]
[1]
  IC50: > 30000 nM

## CCCCNc1nc(Cl)c(-c2ccccc2)n(CC(=O)NCc2ccc(C(=N)N)cc2)c1=O [1517-35]
[1]
  IC50: 23600 nM

## CC(C)CCNc1nc(Cl)c(-c2ccccc2)n(CC(=O)NCc2ccc(C(=N)N)cc2)c1=O [1517-40]
[1]
  IC50: 370 nM

## CC(C)(C)CCNc1nc(Cl)c(-c2ccccc2)n(CC(=O)NCc2ccc(C(=N)N)cc2)c1=O [1517-41]
[1]
  IC50: 590 nM

## CC(C)CCNc1nc(Cl)c(-c2ccccc2)n(CC(=O)NCc2ccc(C(=N)N)cc2)c1=O [1522-14]
[1]
  IC50: 200 nM

## CC(C)(C)CCNc1nc(Cl)c(-c2ccccc2)n(CC(=O)NCc2ccc(C(=N)N)cc2)c1=O [1522-18]
[1]
  IC50: 200 nM

## CC(CNc1nc(Cl)c(-c2ccccc2)n(CC(=O)NCc2ccc(C(=N)N)cc2)c1=O)N(C)C (centres unmarked) [1522-23]
[1]
  IC50: 300 nM

## CC(C)CNc1nc(Cl)c(-c2ccccc2)n(CC(=O)NCc2ccc(C(=N)N)cc2)c1=O [1522-34]
[1]
  IC50: 200 nM

## N=C(N)c1ccc(CNC(=O)Cn2c(-c3ccccc3)c(Cl)nc(NC3CCCCCC3)c2=O)cc1 [1522-36]
[1]
  IC50: 300 nM

## N=C(N)c1ccc(CNC(=O)Cn2c(-c3ccccc3)c(Cl)nc(NCCNc3ncc(C(F)(F)F)cc3Cl)c2=O)cc1 [1522-37]
[1]
  IC50: 300 nM

## N=C(N)c1ccc(CNC(=O)Cn2c(-c3ccccc3)c(Cl)nc(NCCNc3ncccc3C(F)(F)F)c2=O)cc1 [1522-38]
[1]
  IC50: 300 nM

## C[C@H](Nc1nc(Cl)c(-c2ccccc2)n(CC(=O)NCc2ccc(C(=N)N)cc2)c1=O)C1CCCCC1 [1522-43]
[1]
  IC50: 300 nM

## N=C(N)c1ccc(CNC(=O)Cn2c(-c3ccccc3)c(Cl)nc(NC3CC4CCC3C4)c2=O)cc1 (centres unmarked) [1522-44]
[1]
  IC50: 200 nM

## N=C(N)c1ccc(CNC(=O)Cn2c(-c3ccccc3)c(Cl)nc(NC3CCS(=O)(=O)C3)c2=O)cc1 (centres unmarked) [1522-46]
[1]
  IC50: 200 nM

## N=C(N)c1ccc(CNC(=O)Cn2c(-c3cccc(N)c3)c(Cl)nc(NC3CCC3)c2=O)c(F)c1 [1543-39]
Cells without % sign: IC50
  IC50: 50 nM

## N=C(N)c1ccc(CNC(=O)Cn2c(-c3ccccc3)c(Cl)nc(NCCc3ccncc3)c2=O)cc1 [Example 19]
[1]
  IC50: 270 nM

## N=C(N)c1ccc(CNC(=O)Cn2c(-c3ccc(-c4ccccc4)cc3)c(Cl)nc(NCCc3cccnc3)c2=O)cc1 [Example 21]
[1]
  IC50: 2000 nM

## N=C(N)c1ccc(CNC(=O)Cn2c(-c3ccc(-c4ccccc4)cc3)c(Cl)nc(NCCc3ccc(Cl)cc3)c2=O)cc1 [Example 22]
[1]
  IC50: 1700 nM

## N=C(N)c1ccc(CNC(=O)Cn2c(-c3cccc(Cl)c3)c(Cl)nc(NCc3ccccc3)c2=O)cc1 [Example 23]
[1]
  IC50: 320 nM

## N=C(N)NC/C=C\CNC(=O)Cn1c(-c2ccccc2)cnc(NCCc2ccccc2)c1=O [Example 37]
[1]
  IC50: 300 nM

## CC(C)Nc1nc(Cl)c(-c2cccc(C(=O)O)c2)n(CC(=O)NCc2ccc(C(=N)N)cc2)c1=O [Example 65]
[1]
  IC50: 300 nM

## Cc1c(Cl)nc(NCCc2ccncc2)c(=O)n1CC(=O)NCCc1ccncc1 [Example E-0006]
  % Inhibition Trpysin II (100 µM): 1%

## O=C(Cn1c(-c2ccccc2)c(Cl)nc(NCc2ccccc2)c1=O)NCCc1ccncc1 [Example E-0009]
  % Inhibition Trpysin II (100 µM): 1%

## O=C(Cn1c(-c2ccccc2)c(Cl)nc(NCCc2cccnc2)c1=O)NCCc1ccncc1 [Example E-0013]
  % Inhibition Trpysin II (100 µM): 1%

## O=C(Cn1c(-c2ccc(Cl)cc2)c(Cl)nc(NCc2ccccc2)c1=O)NCCc1ccncc1 [Example E-0017]
100 µM
  % Inhibition Trpysin II (100 µM): 1%

## O=C(Cn1c(-c2ccc(Cl)cc2)c(Cl)nc(NCCc2ccccc2)c1=O)NCCc1ccncc1 [Example E-0018]
100 µM
  % Inhibition Trpysin II (100 µM): 4%

## O=C(Cn1c(-c2ccc(Cl)cc2)c(Cl)nc(NCCc2cccc(Cl)c2)c1=O)NCCc1ccncc1 [Example E-0019]
100 µM
  % Inhibition Trpysin II (100 µM): 2%

## O=C(Cn1c(-c2ccc(Cl)cc2)c(Cl)nc(NCCc2ccc(Cl)cc2)c1=O)NCCc1ccncc1 [Example E-0020]
100 µM
  % Inhibition Trpysin II (100 µM): 4%

## O=C(Cn1c(-c2ccc(Cl)cc2)c(Cl)nc(NCCc2cccnc2)c1=O)NCCc1ccncc1 [Example E-0021]
100 µM
  % Inhibition Trpysin II (100 µM): 5%

## O=C(Cn1c(-c2ccc(Cl)cc2)c(Cl)nc(NCCc2ccncc2)c1=O)NCCc1ccncc1 [Example E-0022]
100 µM
  % Inhibition Trpysin II (100 µM): 2%

## O=C(Cn1c(-c2ccc(Cl)cc2)c(Cl)nc(NCCN2CCOCC2)c1=O)NCCc1ccncc1 [Example E-0023]
100 µM
  % Inhibition Trpysin II (100 µM): 1%

## O=C(Cn1c(-c2ccc(Cl)cc2)c(Cl)nc(NCc2ccncc2)c1=O)NCCc1ccncc1 [Example E-0024]
100 µM
  % Inhibition Trpysin II (100 µM): 1%

## O=C(Cn1c(-c2ccc(Cl)cc2)c(Cl)nc(NCc2ccccc2)c1=O)NCCc1ccncc1 [Example E-0025]
100 µM
  % Inhibition Trpysin II (100 µM): 3%

## O=C(Cn1c(-c2ccc(Cl)cc2)c(Cl)nc(NCCc2ccccc2)c1=O)NCCc1ccncc1 [Example E-0026]
100 µM
  % Inhibition Trpysin II (100 µM): 3%

## O=C(Cn1c(-c2ccc(Cl)cc2)c(Cl)nc(NCCc2ccc(Cl)cc2)c1=O)NCCc1ccncc1 [Example E-0028]
100 µM
  % Inhibition Trpysin II (100 µM): 3%

## O=C(Cn1c(-c2ccc(Cl)cc2)c(Cl)nc(NCCc2cccnc2)c1=O)NCCc1ccncc1 [Example E-0029]
100 µM
  % Inhibition Trpysin II (100 µM): 2%

## O=C(Cn1c(-c2ccc(Cl)cc2)c(Cl)nc(NCCc2ccncc2)c1=O)NCCc1ccncc1 [Example E-0030]
100 µM
  % Inhibition Trpysin II (100 µM): 4%

## O=C(Cn1c(-c2ccc(Cl)cc2)c(Cl)nc(NCc2ccncc2)c1=O)NCCc1ccncc1 [Example E-0032]
100 µM
  % Inhibition Trpysin II (100 µM): 3%

## COc1ccc(-c2c(Cl)nc(NCCc3ccccc3)c(=O)n2CC(=O)NCCc2ccncc2)cc1 [Example E-0034]
100 µM
  % Inhibition Trpysin II (100 µM): 3%

## COc1ccc(-c2c(Cl)nc(NCCc3cccc(Cl)c3)c(=O)n2CC(=O)NCCc2ccncc2)cc1 [Example E-0035]
100 µM
  % Inhibition Trpysin II (100 µM): 2%

## COc1ccc(-c2c(Cl)nc(NCCc3ccc(Cl)cc3)c(=O)n2CC(=O)NCCc2ccncc2)cc1 [Example E-0036]
100 µM
  % Inhibition Trpysin II (100 µM): 0%

## O=C(Cn1c(-c2ccc(-c3ccccc3)cc2)c(Cl)nc(NCc2ccccc2)c1=O)NCCc1ccncc1 [Example E-0049]
100 µM
  % Inhibition Trpysin II (100 µM): 0%

## O=C(Cn1c(-c2ccc(-c3ccccc3)cc2)c(Cl)nc(NCCc2ccccc2)c1=O)NCCc1ccncc1 [Example E-0050]
100 µM
  % Inhibition Trpysin II (100 µM): 0%

## O=C(Cn1c(-c2ccc(-c3ccccc3)cc2)c(Cl)nc(NCCc2ccc(Cl)cc2)c1=O)NCCc1ccncc1 [Example E-0052]
100 µM
  % Inhibition Trpysin II (100 µM): 0%

## O=C(Cn1c(-c2cccc(Cl)c2)c(Cl)nc(NCc2ccccc2)c1=O)NCCc1ccncc1 [Example E-0073]
100 µM
  % Inhibition Trpysin II (100 µM): 6%

## O=C(Cn1c(-c2cccc(Cl)c2)c(Cl)nc(NCc2ccccc2)c1=O)NCCc1cccnc1 [Example E-0074]
100 µM
  % Inhibition Trpysin II (100 µM): 8%

## O=C(Cn1c(-c2cccc(Cl)c2)c(Cl)nc(NCCc2ccccc2)c1=O)NCCc1ccncc1 [Example E-0076]
100 µM
  % Inhibition Trpysin II (100 µM): 10%

## O=C(Cn1c(-c2cccc(Cl)c2)c(Cl)nc(NCCc2ccccc2)c1=O)NCCc1cccnc1 [Example E-0077]
100 µM
  % Inhibition Trpysin II (100 µM): 7%

## O=C(Cn1c(-c2cccc(Cl)c2)c(Cl)nc(NCCc2cccc(Cl)c2)c1=O)NCCc1cccnc1 [Example E-0080]
100 µM
  % Inhibition Trpysin II (100 µM): 5%

## O=C(Cn1c(-c2cccc(Cl)c2)c(Cl)nc(NCCc2ccc(Cl)cc2)c1=O)NCCc1ccncc1 [Example E-0082]
100 µM
  % Inhibition Trpysin II (100 µM): 3%

## O=C(Cn1c(-c2cccc(Cl)c2)c(Cl)nc(NCCc2ccc(Cl)cc2)c1=O)NCCc1cccnc1 [Example E-0083]
100 µM
  % Inhibition Trpysin II (100 µM): 6%

## O=C(Cn1c(-c2cccc(Cl)c2)c(Cl)nc(NCc2ccccc2)c1=O)NCCc1ccncc1 [Example E-0085]
100 µM
  % Inhibition Trpysin II (100 µM): 9%

## O=C(Cn1c(-c2cccc(Cl)c2)c(Cl)nc(NCCc2ccccc2)c1=O)NCCc1ccncc1 [Example E-0088]
100 µM
  % Inhibition Trpysin II (100 µM): 9%

## O=C(Cn1c(-c2cccc(Cl)c2)c(Cl)nc(NCCc2ccccc2)c1=O)NCCc1cccnc1 [Example E-0089]
100 µM
  % Inhibition Trpysin II (100 µM): 8%

## O=C(Cn1c(-c2cccc(Cl)c2)c(Cl)nc(NCCc2cccc(Cl)c2)c1=O)NCCc1ccncc1 [Example E-0091]
100 µM
  % Inhibition Trpysin II (100 µM): 8%

## O=C(Cn1c(-c2cccc(Cl)c2)c(Cl)nc(NCCc2cccc(Cl)c2)c1=O)NCCc1cccnc1 [Example E-0092]
100 µM
  % Inhibition Trpysin II (100 µM): 9%

## O=C(Cn1c(-c2cccc(Cl)c2)c(Cl)nc(NCCc2ccc(Cl)cc2)c1=O)NCCc1ccncc1 [Example E-0094]
100 µM
  % Inhibition Trpysin II (100 µM): 7%

## O=C(Cn1c(-c2cccc(Cl)c2)c(Cl)nc(NCCc2ccc(Cl)cc2)c1=O)NCCc1cccnc1 [Example E-0095]
100 µM
  % Inhibition Trpysin II (100 µM): 9%

## COc1ccc(-c2c(Cl)nc(NCCc3ccc(Cl)cc3)c(=O)n2CC(=O)NCCc2ccncc2)cc1 [Example E-0106]
100 µM
  % Inhibition Trpysin II (100 µM): 9%

## O=C(Cn1c(-c2ccc(-c3ccccc3)cc2)c(Cl)nc(NCCc2cccc(Cl)c2)c1=O)NCCc1cccnc1 [Example E-0116]
  % Inhibition Trpysin II (100 µM): 10%

## O=C(Cn1c(-c2ccc(-c3ccccc3)cc2)c(Cl)nc(NCCc2ccc(Cl)cc2)c1=O)NCCc1ccncc1 [Example E-0118]
100 µM
  % Inhibition Trpysin II (100 µM): 9%

## O=C(Cn1c(-c2ccc(-c3ccccc3)cc2)c(Cl)nc(NCCc2ccc(Cl)cc2)c1=O)NCCc1cccnc1 [Example E-0119]
  % Inhibition Trpysin II (100 µM): 10%

## CC(C)Nc1nc(Cl)c(-c2cc(N)ccc2F)n(CC(=O)NCc2ccc(C(=N)N)cc2F)c1=O [compound 73]
[1]
  IC50: 100 nM

## CC(C)Nc1nc(Cl)c(-c2ccc(Cl)nc2)n(CC(=O)NCc2ccc(C(=N)N)cc2F)c1=O [compound 74]
[1]
  IC50: 150 nM

## CC(C)Nc1nc(Cl)c(-c2cccnc2)n(CC(=O)NCc2ccc(C(=N)N)cc2)c1=O [compound 75]
[1]
  IC50: 40 nM

## N=C(N)c1ccc(CNC(=O)Cn2c(-c3cccc([N+](=O)[O-])c3)c(Cl)nc(NCCc3ccccc3)c2=O)cc1 [compound 77]
[1]
  IC50: 1130 nM

Where two headings read alike, the source gives them in different places.
